Values after ≈ are worked out from the molar mass of the structure shown.
Legend:
Brain [1] = experiment: Antioxidant activity in Wistar rat brain assessed as inhibition of lipid peroxidation; settings: strain Wistar
Brain [2] = experiment: Antioxidant activity in Wistar rat brain assessed as reduction in glutathione content; settings: strain Wistar
[3] = Inhibition of superoxide dismutase in Wistar rat brain; format: tissue-based; settings: strain Wistar
Catalase = Catalase (Rattus norvegicus, UniProt P04762); experiment: Inhibition of catalase in Wistar rat brain

By UniProt entry, the sequences of proteins in these tests, tags left out. Residues count along the entry.
UniProt P04762, 2-527 limits assumed: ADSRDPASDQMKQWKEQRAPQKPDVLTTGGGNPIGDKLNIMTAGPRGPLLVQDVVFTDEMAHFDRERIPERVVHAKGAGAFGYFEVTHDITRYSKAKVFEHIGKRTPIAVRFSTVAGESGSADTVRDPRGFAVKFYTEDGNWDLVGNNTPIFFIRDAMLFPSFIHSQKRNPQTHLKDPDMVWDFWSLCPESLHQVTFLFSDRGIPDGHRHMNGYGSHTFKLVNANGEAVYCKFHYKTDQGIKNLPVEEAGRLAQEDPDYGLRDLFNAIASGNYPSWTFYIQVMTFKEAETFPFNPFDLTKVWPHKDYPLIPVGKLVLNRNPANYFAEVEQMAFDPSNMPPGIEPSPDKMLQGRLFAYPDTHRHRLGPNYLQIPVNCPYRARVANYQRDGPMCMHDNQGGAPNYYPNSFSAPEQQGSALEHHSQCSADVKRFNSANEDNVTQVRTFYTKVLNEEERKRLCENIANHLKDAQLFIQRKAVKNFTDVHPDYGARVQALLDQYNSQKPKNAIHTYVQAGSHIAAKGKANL

SMILES | EC50 (Brain [1]) [µg/mL] | EC50 (Brain [2]) [µg/mL] | EC50 [3] [µg/mL] | EC50 (Catalase) [µg/mL]
COc1ccc2c3c1O[C@H]1C[C@@H](OP(=O)(SCCN)N(CCCl)CCCl)C=C[C@@]31CCN(C)C2 (stereo partly drawn) | 2.91 (≈ 5.29 µM) | 2.66 (≈ 4.83 µM) | 2.31 (≈ 4.2 µM) | 2.66 (≈ 4.83 µM)
COc1ccc2c3c1O[C@H]1C[C@@H](OP(=O)(Oc4ccc([N+](=O)[O-])cc4)SCCN)C=C[C@@]31CCN(C)C2 (stereo partly drawn) | 1.86 (≈ 3.4 µM) | 1.56 (≈ 2.85 µM) | 1.74 (≈ 3.18 µM) | 2.03 (≈ 3.71 µM)

From ChEMBL document CHEMBL1154647, “Synthesis, spectral characterization and biological evaluation of phosphorylated derivatives of galanthamine” (Eur J Med Chem, 2010)
